Literature values in patent EP1140135B1, “C[…]” (ratiopharm GmbH, priority 1998, dated 2003).

Conditions: in water, stated as known

Substance: Cyclosporin A
- Löslichkeit in Wasser: sehr schlecht löslich
